The text below walks through data of patent publication US8211874B2, “Inhibition of thrombin generation” (Galderma Laboratories Inc., priority 2005, dated 2012).

For the series the following is noted: in vivo.

As for tetracycline pyrazole [COL-5], the biodistribution entry is recorded as “only limited biodistribution”.
